{"source": "patent EP1435231B1", "about": "“Non-pegylated long-circulating liposomes” (Bharat Serums & Vaccines Ltd., priority 2002, dated 2004)", "system": "Dogs", "assay": "Subacute toxicity in dogs", "conditions": "dog, in vivo", "excerpt": "• clinical signs of toxicity, • body weight, • haemodynamic parameters, • haematology and • biochemical parameters TABLE 7"}
{"substance": "Adriamycin^®", "values": [{"measurement": "Kidney Function Test: blood urea nitrogen (BUN) and creatinine", "value": "Increase"}, {"measurement": "Haemodynamic Parameters: Blood pressure", "setting": "1 mg/kg", "value": "Normal"}]}
